In EP4843994A1, “NOVEL PEPTIDE HAVING MUSCLE FORMATION-PROMOTING ACTIVITY, ANTI-OBESITY ACTIVITY AND ANTI-DIABETIC ACTIVITY AND USES THEREOF” (dated 2026):

What was measured:
[1] = tested on: C2C12 cells; assay: Expression of cell proliferation-related marker proteins in myoblasts (Western blot)
Method: C2C12 cells (mouse-derived myoblasts) were cultured in DMEM medium containing 1% P/S and 10% FBS. When cell confluency reached 70 to 80%, cells were seeded into 6-well culture plates at a concentration of 5 x 10^5 cells/2 ml. On the next day, the medium was replaced with serum-free DMEM (1% P/S), and after about 4 hours, was treated with peptides (5 µM, 50 µM). One hour after peptide treatment, cell lysis buffer was added to lyse the cells, and then the proteins were obtained by centrifuging at 4°C and 12,000 rpm for 30 minutes. The obtained proteins were quantified using a BCA kit. The protein was electrotransferred onto a membrane after performing SDS-PAGE (sodium dodecyl sulfate-polyacrylamide gel electrophoresis). The membrane to which the protein was attached was blocked by treatment with 5% skim milk, and then treated with the primary antibody and reacted overnight at 4°C. Anti-SIRT1 antibody (Cell signaling Technology, USA), anti-Ki67 antibody (Santa Cruz, USA), anti-Pax7 antibody (Santa Cruz, USA), anti-pAKT antibody (Cell signaling Technology, USA), and anti-β-actin antibody (Santa Cruz, USA) were used as primary antibodies. After washing the reaction mixture with PBS-T, secondary antibodies (Peroxidase-conjugated AffiniPure Goat Anti-Rabbit IgG (H+L), Jackson immunoResearch, USA; Peroxidase-conjugated AffiniPure Goat Anti-Mouse IgG (H+L), Jackson immunoResearch, USA) were reacted at room temperature for 1 hour and were washed again with PBS-T, the mixture was visualized using Gel Doc (Bio-Rad, Hercules, CA, USA) by treatment with Western detection reagents (Elpis Biotech, Daejeon, Korea).

[2] = tested on: 3T3-L1 cells; assay: Expression of lipolysis-related proteins in adipocytes (Western blot); details: 3T3-L1 adipocytes (MDI cocktail), peptide 5 µM, 50 µM, 48 hours
Method: The effect of the peptide of SEQ ID NO: 1 prepared in Preparation Example 1 on the expression of lipolysis-related proteins in adipocytes was analyzed. 3T3-L1 cells (preadipocytes, American Type Culture Collection) were cultured in DMEM medium containing 2% BCS (Bovine Calf Serum) (Welgene, Korea). To differentiate 3T3-L1 cells into adipocytes, cells were seeded into 12-well culture plates at a concentration of 1 x 10^5 cells/well, and when the cells became confluent (Day=2), the medium was replaced once more and cultured for an additional 48 hours. After 48 hours (Day=0), the culture medium was replaced with DMEM medium containing 10% FBS, 1% P/S, 1 µg/ml insulin (Sigma, USA), 0.5 mM isobutylmethylxanthine (IBMX) (Sigma, USA), and 1 µM Dexamethasone (Sigma, USA), and cultured. After 2 days (Day=2), the medium was replaced with DMEM medium containing 10% FBS, 1% P/S, and 1 µg/ml insulin, and cultured. After 3 days (Day=5), the medium was replaced with one containing only 10% FBS and 1% P/S, treated with peptides (5 µM, 50 µM), and cultured for 48 hours. After culturing, lysis buffer was added to lyse the cells, and the protein was obtained by centrifuging at 12,000 rpm and 4°C for 30 minutes. The obtained protein was then quantified using a BCA kit. Subsequently, the protein was electrotransferred onto a membrane after performing SDS-PAGE (sodium dodecyl sulfate-polyacrylamide gel electrophoresis). The membrane to which the protein was attached was blocked by treatment with 5% skim milk, and then the primary antibody was incubated overnight at 4°C. The primary antibodies used are as follows: anti-PLIN antibody (Abcam, US); anti-pHSL antibody (Cell signaling Technology, USA); anti-PGC1α antibody (Cell signaling Technology, USA); anti-β-actin antibody (Santa Cruz, USA). […]

[3] = tested on: HepG2 cells; assay: Expression of fatty acid oxidation-related genes in hepatocytes (RT-PCR); details: 500 µM oleic acid, peptide 5 µM, 50 µM, 48 hours
Method: HepG2 cells (human-derived hepatocytes) were cultured in DMEM medium containing 1% P/S and 10% FBS. When cell confluency reached approximately 70 to 80%, cells were seeded into a 12-well culture plate at a concentration of 2 x 10^5 cells/ml. Subsequently, when cell confluency in the 12-well culture plate reached approximately 70 to 80%, the medium was replaced with serum-free DMEM medium. After 4 hours, lipid accumulation was induced by replacing the solution with serum-free DMEM (1% BSA) supplemented with 500 µM oleic acid (Sigma, St. Louis, MO, USA). After inducing lipid accumulation for 24 hours, the solution was replaced with serum-free DMEM (1% BSA) supplemented with 500 µM oleic acid (Sigma, St. Louis, MO, USA) and peptides (5 µM, 50 µM), and cultured for 48 hours. After culture, cells were harvested and RNA was extracted using Trizol (Thermo Fisher Scientific, USA). The extracted RNA was synthesized to obtain DNA complementary to the RNA using TOPScript™ RT DryMIX (enzynomics, Korea), and then polymerase chain reaction (PCR) was performed on the genes of fatty acid oxidation-related markers using TOPsimple™ DryMIX-nTaq (enzynomics, Korea). Subsequently, the reaction products were run on a 1.5% agarose gel to compare the mRNA expression levels of the aforementioned markers for each sample. The primer sequences for the genes used in the PCR are listed in Table 5 below, and the GAPDH gene was used as a control.

[4] = peptide 5 µM and 50 µM for 1 hour

## C[C@@H](O)[C@H](NC(=O)CNC(=O)[C@@H](N)Cc1c[nH]cn1)C(=O)N[C@@H](Cc1ccc(O)cc1)C(=O)O
[1]; [4]
  expression level of Ki67 protein: increased in a concentration-dependent manner
  expression level of Pax7 protein: increased in a concentration-dependent manner
  expression level of SIRT1 protein: increased in a concentration-dependent manner
  expression level of pAKT protein: increased in a concentration-dependent manner
[1]; peptide 5 µM for 1 hour
  expression level of Pax7 protein compared to the control group: 2.6 fold
[1]; peptide 50 µM for 1 hour
  expression level of Pax7 protein compared to the control group: 3.8 fold
[2]
  expression level of PGC1α: increased
  expression level of PLIN: increased
  expression level of pHSL: increased
[3]
  expression level of CPT1 (gene): increased again
  expression level of PGC1α (gene): increased again
  expression level of PPARα (gene): increased again
